Chains of the proteins cited; added tags and fusions are not shown. Residues count along the entry.
UniProt P14555, 21-144 limits assumed: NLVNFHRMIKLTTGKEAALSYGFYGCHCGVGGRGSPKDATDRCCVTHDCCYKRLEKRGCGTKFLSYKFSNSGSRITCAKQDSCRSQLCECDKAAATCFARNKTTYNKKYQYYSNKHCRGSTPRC

According to US6407104B1, “Pyrrolo[1,2-a]pyrazine spla2 inhibitor” (Shionogi & Co., Ltd., priority 1998, dated 2002):

Biological target: recombinant human secretory phospholipase A2 (Homo sapiens, UniProt P14555)
Assay: Inhibition Test of Human Secretory Phospholipase A2 (chromogenic assay)
Settings: sPLA2 50 ng/well, 40° C., 30 minutes, OD 405 nm, 96 well microtiterplate
Text: Test Example: Inhibition Test of Human Secretory Phospholipase A2
In order to identify and evaluate an inhibitor of recombinant human secretory phospholipase A2, the following chromogenic assay is utilized. The assay herein has been applied for high volume screening wherein 96 well microtiterplate is used. A general explanation for such assay is described in “Analysis of Human Synovial Fluid Phospholipase A2 on Short Chain Phosphatidylcholine-Mixed Micelles: Development of a Spectrophotometric Assay Suitable for a Micortiterplate Reader” (Analytical Biochemistry, 204, pp 190-197, 1992 by Laure. J. Reynolds. Lori L. Hughes and Edward A. Dennis: the disclosure of which is incorporated herein for reference.
pH 7.5 (adjusted with NaOH)
pH 4.5 (adjusted with acetic acid)
1 mg of sPLA2 is dissolved in 1 ml of an enzyme buffer. Thereafter, the solution is maintained at 4° C.
In the assay, 5 μl of the solution is diluted with 1995 μl of the reaction buffer to be used.
198 mg of 5,5′-dithiobis-2-[…] (manufactured by Wako Pure Chemicals) is dissolved in 100 ml of H2O
H 7.5 (adjusted with NaOH)
100 mg of racemic 1,2-bis(heptanoylthio)-1,2-dideoxy-sn-glycero-3-phospholylcholine is dissolved in 1 ml of chloroform. […]
5) Changes in absorbancy for 30 minutes are measured by a plate reader, and inhibition activity was calculated (OD: 405 nm). […]

IC50: 0.081 µM
Structure (SMILES): CCc1c(C(=O)C(N)=O)c2c(OCC(=O)OC)nc(C)cn2c1Cc1ccccc1-c1ccsc1
